For one molecule, EC50 results are on record in ChEMBL document CHEMBL5360615, “Pharmacological and Physicochemical Properties Optimization for Dual-Target Dopamine D3 (D3R) and μ-Opioid (MOR) Receptor Ligands as Potentially Safer Analgesics” (J Med Chem, 2023).

The chains behind the UniProt entries cited, without tags or fusion partners.
UniProt P42866, whole entry: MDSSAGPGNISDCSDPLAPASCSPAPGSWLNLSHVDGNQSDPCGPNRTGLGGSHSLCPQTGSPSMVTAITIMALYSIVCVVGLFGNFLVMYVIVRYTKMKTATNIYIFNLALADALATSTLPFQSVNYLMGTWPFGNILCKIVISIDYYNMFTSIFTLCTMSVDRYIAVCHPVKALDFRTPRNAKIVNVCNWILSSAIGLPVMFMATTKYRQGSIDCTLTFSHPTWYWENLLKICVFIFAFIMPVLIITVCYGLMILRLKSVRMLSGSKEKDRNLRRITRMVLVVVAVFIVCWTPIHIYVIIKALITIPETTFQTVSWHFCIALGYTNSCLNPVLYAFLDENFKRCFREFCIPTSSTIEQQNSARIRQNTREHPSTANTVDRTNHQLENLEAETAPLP

Format in all cases: functional, cell-based
Assay [1] has as its target T1, Mu-type opioid receptor (Mus musculus, UniProt P42866). The experiment in a line: Partial agonist activity at SNAP-tagged mouse MOR transfected in HEK293T cells coexpressing wild type Galpha-i2, venus-tagged Gbeta-1 (156 to 239 residues), venus-tagged Ggamma2 (1 to 155 residues) and Rluc8 fused masGRK3ct assessed as Galpha-i2 activation using coelenterazine as substrate incubated for 40 mins by BRET based GPA assay. In general terms: BRET reads energy transfer from a luciferase to a nearby fluorophore.

Assay [2] concerns the target T1, Mu-type opioid receptor. The experiment in a line: Partial agonist activity at Rluc8 fused mouse MOR transfected in HEK293T cells coexpressing wild type GRK2 assessed as arrestin-3 recruitment using coelenterazine as substrate incubated for 40 mins by BRET assay.
The target in assay [3] is T1, Mu-type opioid receptor. The experiment in a line: Partial agonist activity at Rluc8 fused mouse MOR transfected in HEK293T cells assessed as Nb33 recruitment using coelenterazine as substrate incubated for 40 mins by BRET assay.

As to `COc1ccsc1CNCC[C@@]1(c2ccccn2)CCOC2(CCCC2)C1` [OLICERIDINE], the EC50 at Mu-type opioid receptor [1] was determined as 2.4 nM; on Mu-type opioid receptor [2], 32.5 nM; on Mu-type opioid receptor [3] it was 58.5 nM.

A word on the EC50: it is the concentration that produces a half-maximal response.
